According to patent publication US20200061076A1, “METHODS OF TREATING LEUKODYSTROPHIES” (Ramot at Tel-Aviv University Ltd., priority 2017, published 2020):

Test system: Mut MEFs
Test: JC1 staining of intact and damaged mitochondria (mitochondrial membrane potential)
Type: cell-based, mouse
Conditions: Mutant MEFs, 1 μM, 24 hours (FIG. 12)
Procedure: Mut MEFs were treated or not for 6 hours with the indicated concentrations of p8G5 (blue), pre084 (purple), or NE-100 (yellow), washed and stained with Hoechst and JC1 for 30 minutes followed by image acquisition using In-Cell-Analyzer-2000. Shown is the % of red/green JC1 integrated intensity per cell relative to that in untreated WT cells of 2-4 independent experiments.
Following, the cells were washed, stained with Hoechst and JC-1 fluorescent dyes for 30 minutes, and subjected to image acquisition using In-Cell-Analyzer-2000. Shown is cellular content of damaged mitochondria (JC1 green channel, red bars), intact mitochondria (JC1 red channel, green bars) and damaged to intact mitochondria ratio (blue bars). Values of control (vehicle treated) cells was set to 100%.
Mut MEFs were treated with the indicated compounds at 10 μM for 24 hours followed by staining with fluorogenic dyes and image-based single-cell analysis. […]
Mut MEFs were incubated or not for 24 hours with 10 μM of the indicated compounds, washed and stained with Hoechst and JC1 followed by image-based single-cell analysis. […] Mut MEFs were incubated or not with the indicated concentrations of the indicated compounds for 2 hours followed by addition of 50 ng/ml Tunicamycin (Tun) for additional 22 hours, stained with Crystal Violet followed by measurement of absorbance at 570 nm. […]

Compound: CC1=C2C[C@H]3[C@@H](CC=C4C[C@@H](O)CC[C@@]43C)[C@@H]2CC[C@]12O[C@@H]1C[C@H](C)CN[C@H]1[C@H]2C [Cyclopamine, reference compound]
- ratio of damaged to intact mitochondria: decreased ratio of damaged to intact mitochondria
